## Yeast mating assay B: variants of the scFv Ab-14

Data: MIT Lincoln Laboratory AlphaSeq set, Li et al. 2023, doi:10.1038/s41467-023-39022-2, as distributed in FLAb.

Binding partner: SARS-CoV-2 spike HR2 peptide, sequence PDVDLGDISGINAS.

The variants keep the heavy chain, the linker and the frameworks of Ab-14 (scFv order VH, a 15-residue (Gly4Ser)3 linker, VL).
VH: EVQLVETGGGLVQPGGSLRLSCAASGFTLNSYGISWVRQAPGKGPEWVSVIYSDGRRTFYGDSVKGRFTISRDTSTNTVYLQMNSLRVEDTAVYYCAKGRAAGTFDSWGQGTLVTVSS
VL: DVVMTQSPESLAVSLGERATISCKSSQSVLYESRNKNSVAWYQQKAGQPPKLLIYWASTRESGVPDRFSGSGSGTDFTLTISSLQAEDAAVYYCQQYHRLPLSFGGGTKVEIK

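Phage display of a naive human antibody library on the peptide gave the parent. This is the validation round: designs drawn from the data on random variants, tested in the same kind of assay. Group labels follow the data file (Ctrl: baseline library sampled from a position-specific scoring matrix, with some repeated check sequences; En: ensemble of fine-tuned language models; GP: Gaussian process model; HC: hill climbing; Gen: genetic algorithm; Gibbs: Gibbs sampling; a sequence that several methods proposed may carry one label only). The scFvs were displayed on barcoded MATa yeast, the peptide on MATalpha yeast. After mating in shaken culture at 30 °C for 16 h, diploids were selected and their barcode pairs sequenced. A regression on co-assayed BCL2-family reference pairs converts the normalised counts of each replicate to an apparent Kd. Each pool was mated in six replicate cultures.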

Each variant is given by its three light chain CDRs, as the data file delimits them; those of the parent are KSSQSVLYESRNKNSVA, WASTRES, QQYHRLPLS.
Each Kd is an estimate from the mating assay, the geometric mean of the replicates in which the pair was seen; lower is stronger.
Where no diploid with the target was found in any replicate, the entry reads "nd": below detection, most likely a poor binder, though not proof of it.
The authors' rule: three or more of the six replicates give a measured affinity, fewer mean a poor binder.
Background: pairings of all light chain designs with three empty control strains gave a value in 4% of cases (median 430 nM, 5th percentile 38 nM). Values in that range, when seen in few replicates, are hard to tell from nonspecific mating.
The range of this assay differs from that of the first round, and the authors advise against merging the two.
The parent sequence was in this pool as ten entries: three were never detected, three once, and four in most replicates, with averages from 2.2 nM to 240 nM.

Result 260 nM (6 of 6 replicates), variant MITAMLRGVGRDKNSVA, NAQTREK, QHYNRLPLS [En_HC].
Result 1.5 nM (6 of 6 replicates), variant KLSQSMLYESRNKNSVA, NASTRYS, QQYHRLPLS [GP_Gen].
Result 31 nM (6 of 6 replicates), variant KLSQTVLFWGHAINSVA, EMETREN, QQYDRLPLS [En_HC].
Result nd (0 of 6 replicates), variant IVSQLMLWGMHAKNSIA, EAELRLN, QQYDRLPLF [En_Gen].
Result 470 pM (6 of 6 replicates), variant KLDFLGLYEQRNKNSVA, SASTRES, QQYHRLPLS [GP_Gibbs].
Result 3.9 nM (6 of 6 replicates), variant TISQMSTLFSQSINNVA, EVSTRIE, QQYDRLPLA [En_Gen].
Result 9.1 nM (6 of 6 replicates), variant QIYQAMHTLSQMKDNVA, DVNERGR, QQYFRLPLS [En_Gen].
Result 11 nM (6 of 6 replicates), variant HFSQVTMYGYWNTNSVA, QTSTREE, QQYDRLPLS [En_HC].
Result 760 nM (3 of 6 replicates), variant FSSQSVLYESRNKNSVA, WASTRES, QQYHRLPLS [Ctrl].
Result 11 nM (6 of 6 replicates), variant HLSLRLSYGKDLQNAVA, GVQARMT, QQYARLPLL [En_Gibbs].
Result 1.7 nM (6 of 6 replicates), variant KSSQSWLYESRNKNPVA, GASQRES, QQYHRLPLS [GP_HC].
Result 32 nM (2 of 6 replicates), variant IVSQLMLWGMHIKNSVA, EAVTRVN, QQYDRLPLI [En_Gen].
Result 3.3 nM (6 of 6 replicates), variant KLEQSTPYESRNKNSVA, NASTRES, QQYHRLPLS [GP_Gen].
Result 910 pM (6 of 6 replicates), variant KVYQSNLYESRNKNSVA, NASQRES, QQYHRLPLS [GP_Gen].
Result 1.5 nM (6 of 6 replicates), variant KLEQSDLLESRNKQSVA, QASTRMS, QQYHRLPLS [GP_Gibbs].
Result 4.0 nM (6 of 6 replicates), variant KVSQSVLYESRNKNSVA, DASTRCS, QQYHRLPLS [GP_Gen].
Result 64 nM (5 of 6 replicates), variant LIKGMVEGQLYWQNAIA, NSEERDR, QQYNHLPLS [En_Gibbs].
Result nd (0 of 6 replicates), variant KSSWSVLYNSRNKNSVA, WAQTREP, QQYHRLPLS [Ctrl].
Result 27 nM (6 of 6 replicates), variant YAQMPFNEVGKDEQNIA, NATIRES, QQYFRLPIL [En_Gibbs].
Result 7.7 nM (6 of 6 replicates), variant KVRQSTLYESRNKNSVA, KASTRES, QQYHRLPLS [GP_HC].
Result 1.1 nM (6 of 6 replicates), variant KLSQSVDYESRNKNSVA, SASTRES, QQYHRLPLS [GP_Gen].
Result 840 pM (6 of 6 replicates), variant KVQQSVPYEDRNKNSVA, HASTRSS, QDYHRLPLS [GP_Gibbs].
Result 100 nM (6 of 6 replicates), variant SLTVSDNYGSQLENNIA, QGVCKAE, QQYIRLPLI [En_Gibbs].
Result nd (0 of 6 replicates), variant KSSQSVLYESRNHNSVA, WASYRES, QDYHRLPLV [Ctrl].
Result 1.9 nM (6 of 6 replicates), variant KYYPSGLYESRNKNSVA, QASTRES, QQYHRLPLS [GP_HC].
Result 2.6 nM (6 of 6 replicates), variant MVTQMAMTGMKNKRSVA, NASTREE, QQYHRLPLI [En_Gen].
Result 6.4 nM (5 of 6 replicates), variant KLSMTTEMELKNRNSVA, ELVTRCN, QQYNRLPLS [En_Gen].
Result 150 nM (6 of 6 replicates), variant MISQLYNMGSFAINSVA, QASERNN, QQYDRLPLI [En_Gen].
Result 8.9 nM (6 of 6 replicates), variant TISMSMNWLTRNKNSIA, EESTRED, QQYDRLPLS [En_HC].
Result 78 nM (6 of 6 replicates), variant KSSQSVGYESRYKNSVA, WASTRES, QQYHRLPLS [Ctrl].
Result 560 pM (6 of 6 replicates), variant KSSISYLYESENKNSVA, DASQRES, QQYHRLPLS [GP_HC].
Result 7.5 nM (6 of 6 replicates), variant KVLQSVHYEGRNKNSVA, HASTRED, QQYHRLPLS [GP_HC].
Result 120 nM (5 of 6 replicates), variant KLSQSELYEERNDNSVA, QASQRES, QDYHRLPLS [GP_Gibbs].
Result 24 nM (1 of 6 replicates), variant MLSQMWAIGMKAKNSVA, QANMRFN, QQYDRLPLI [En_Gen].
Result 1.1 nM (6 of 6 replicates), variant KIGMTLNTLLHQKNNVA, DLVEREN, QQYFRLPLS [En_Gen].
Result 240 nM (3 of 6 replicates), variant KSSQSVLYESRNKNSVA, WASTREQ, QQYHRLPLS [Ctrl].
Result 3.5 nM (6 of 6 replicates), variant SLMQVGGYEMNAHNSIA, DLRTRES, QQYHRLPLS [En_HC].
Result 34 nM (5 of 6 replicates), variant KLSQSFLYESRNSNSVA, NASTRES, QQYHRLPLS [GP_Gen].
Result 1.4 nM (6 of 6 replicates), variant KLSQSVGYEERNKNSVA, NASQRES, QQYHRLPLS [GP_Gen].
Result 48 nM (6 of 6 replicates), variant MISQLYNMGSFAINSVA, QAQTRNE, QQYDRLPLI [En_Gen].
Result 7.2 nM (5 of 6 replicates), variant KSPQSVLYESRNKNSVA, WASTRES, QQYQRLPLS [Ctrl].
Result nd (0 of 6 replicates), variant SLENFTGEQNAYGSSIA, NADVLVY, QQYYRLPIV [En_Gibbs].
Result 7.3 nM (6 of 6 replicates), variant KMSQSWLQESNNKNSVA, WASVRES, TQYHRLPLS [Ctrl].
Result 470 nM (5 of 6 replicates), variant SLSHDQGDETNHWENVA, QDAYRAN, QDYSRLPLS [En_Gibbs].